Source: PubChem BioAssay (NCI)
The list shows a part of the results, in another mix than the full data.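 How to read the values: 0–100, growth inhibition (40 = 60% inhibited); 0, no net growth; -100 to 0, cell death (-40 = 40% of starting cells died; -100 = all dead).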 Calls of active or inactive are those of the source. How the source made its calls: active means growth percent below 10; inactive means the rest.

Assays:
Experiment in all cases: NCI-60 one-dose screen, 48 h (100 = growth as untreated, 0 = no growth, -100 = all killed)
Conditions in all cases: 10 µM
NCI-H226 lung = system: NCI-H226 lung
NCI-H322M lung = system: NCI-H322M lung
HOP-62 NSCLC = system: HOP-62 NSCLC
NCI-H460 lung = system: NCI-H460 lung
HOP-92 NSCLC = system: HOP-92 NSCLC
NCI-H522 lung = system: NCI-H522 lung
A549/ATCC NSCLC = system: A549/ATCC NSCLC
786-0 renal = system: 786-0 renal
COLO 205 colon = system: COLO 205 colon
DU-145 prostate = system: DU-145 prostate
K-562 leukemia = system: K-562 leukemia
MALME-3M melanoma = system: MALME-3M melanoma
MDA-MB-231 breast = system: MDA-MB-231 breast
RXF 393 renal = system: RXF 393 renal
SF-268 CNS = system: SF-268 CNS
SF-295 CNS = system: SF-295 CNS
SF-539 CNS = system: SF-539 CNS
UACC-257 melanoma = system: UACC-257 melanoma
M14 melanoma = system: M14 melanoma
HCT-15 colon = system: HCT-15 colon
HT29 colon = system: HT29 colon
SNB-75 CNS = system: SNB-75 CNS
SNB-19 CNS = system: SNB-19 CNS
U251 CNS = system: U251 CNS
PC-3 prostate = system: PC-3 prostate
UACC-62 melanoma = system: UACC-62 melanoma
SK-MEL-28 melanoma = system: SK-MEL-28 melanoma
SK-MEL-2 melanoma = system: SK-MEL-2 melanoma
EKVX NSCLC = system: EKVX NSCLC
SN12C renal = system: SN12C renal
UO-31 renal = system: UO-31 renal
TK-10 renal = system: TK-10 renal
ACHN renal = system: ACHN renal
CAKI-1 renal = system: CAKI-1 renal
A498 renal = system: A498 renal
HL-60(TB) leukemia = system: HL-60(TB) leukemia
CCRF-CEM leukemia = system: CCRF-CEM leukemia
MOLT-4 leukemia = system: MOLT-4 leukemia
SR leukemia = system: SR leukemia
RPMI-8226 leukemia = system: RPMI-8226 leukemia
OVCAR-8 ovarian = system: OVCAR-8 ovarian
OVCAR-5 ovarian = system: OVCAR-5 ovarian
OVCAR-4 ovarian = system: OVCAR-4 ovarian
IGROV1 ovarian = system: IGROV1 ovarian
OVCAR-3 ovarian = system: OVCAR-3 ovarian
HS 578T breast = system: HS 578T breast
T-47D breast = system: T-47D breast
BT-549 breast = system: BT-549 breast
MDA-MB-435 melanoma = system: MDA-MB-435 melanoma
SW-620 colon = system: SW-620 colon
MCF7 breast = system: MCF7 breast
HCT-116 colon = system: HCT-116 colon
KM12 colon = system: KM12 colon

Measured: growth

O=C(CNc1ccc([N+](=O)[O-])c([N+](=O)[O-])c1)n1cnc2ccc([N+](=O)[O-])cc21
inactive: NCI-H226 lung 109% | NCI-H322M lung 96.5% | HOP-62 NSCLC 103% | NCI-H460 lung 102% | HOP-92 NSCLC 123% | NCI-H522 lung 88.5% | A549/ATCC NSCLC 97.4% | 786-0 renal 101% | COLO 205 colon 114% | DU-145 prostate 107% | K-562 leukemia 114% | MALME-3M melanoma 102% | MDA-MB-231 breast 101% | RXF 393 renal 108% | SF-268 CNS 99.7% | SF-295 CNS 105% | SF-539 CNS 94.6% | UACC-257 melanoma 102% | M14 melanoma 102% | HCT-15 colon 100% | HT29 colon 98.8% | SNB-75 CNS 92.5% | SNB-19 CNS 96.3% | U251 CNS 99.3% | PC-3 prostate 104% | UACC-62 melanoma 98.1% | SK-MEL-28 melanoma 106% | SK-MEL-2 melanoma 98.9% | EKVX NSCLC 99.2% | SN12C renal 92.6% | UO-31 renal 93.3% | TK-10 renal 94.9% | ACHN renal 103% | CAKI-1 renal 97.2% | A498 renal 85.5% | HL-60(TB) leukemia 115% | CCRF-CEM leukemia 105% | MOLT-4 leukemia 102% | SR leukemia 107% | RPMI-8226 leukemia 115% | OVCAR-8 ovarian 103% | OVCAR-5 ovarian 106% | OVCAR-4 ovarian 111% | IGROV1 ovarian 107% | OVCAR-3 ovarian 108% | HS 578T breast 94.6% | T-47D breast 98.4% | BT-549 breast 104% | MDA-MB-435 melanoma 98.8% | SW-620 colon 103% | MCF7 breast 94% | HCT-116 colon 104% | KM12 colon 102%
